# Experiments:
# [1] = system: primary adult rat DRG neurons; test: Neurite outgrowth in primary cultures of adult DRG neurons; format: cell-based
# Description: Neurite outgrowth in primary cultures of adult DRG neurons: Primary DRGs neurons were isolated from adult male Sprague Dawley rats and cultured as previously described for mice with modifications.^53 The DRGs were stripped of their roots and collected in Hanks Buffered Salt Solution (HBSS) on ice. DRGs were enzymatically digested and approximately 4000 DRG neurons were plated in each well of a 12-well tissue culture plate (Thermo Fisher Scientific, Waltham, MA, USA). All DRG neurons were cultured at 37° C. in 5% CO2 for 54 h in DMEM/F12 containing 2% B27 and 1% FBS with vehicle or SP163M (0-500 ng/ml) added every 24 h. Primary cultured DRG neurons were imaged by phase contrast and the viability of cells was assessed by Trypan blue. Primary DRG neurons were cultured, fixed in 4% paraformaldehyde, and immunofluorescence was performed using a mouse anti-βIII-tubulin primary antibody (Promega, Madison, WI, USA; cat #G7121, 1:250) and then with Alexa Fluor-488 anti-mouse antibody (Life Technologies, Carlsbad, CA, USA) as secondary antibody. DRG neurons were imaged at 20× and 40× manually, and the longest neurite length per cell was measured in 11 images from multiple wells and separate experiments. Approximately 222 and 144 neurons were measured in SP16 and control groups, respectively. Quantification was performed in a blinded manner. For all neurite outgrowth measurements, at least 6 individual experiments were performed in duplicate.
# phospho-Akt = test: Cell signaling analysis in PC12 cells, immunoblot of phospho-Akt; format: cell-based, rat; details: SP163M 24 or 240 nM, RAP 150 nM pretreatment 15 min
# Description: Cell signaling analysis: Rat PC12 cells were purchased from ATCC (CRL-1721). PC12 cells were maintained in high glucose DMEM (Gibco, USA) containing 10% heat-inactivated FBS (Gibco, USA), 5% HyClone heat-inactivated horse serum (Cytiva, USA), penicillin (100 units/ml) and streptomycin ([…]) in 6-well plates that were pre-coated with 0.01 mg/ml type IV collagen (Sigma-Aldrich, St. Louis, MO, USA). Cells were transferred to serum-free medium (SFM) 4 h prior to adding effectors, and then treated with SP163M (2.4, 24 or 240 nM); EI-tPA (12 nM), NGF (0.36 nM), or vehicle (PBS) for 10 min. In some cases, cells were pre-incubated with the competitive antagonist of LRP1, GST-RAP (150 nM) for 15 min or electroporated using the Rat Neuron Nucleofector Amaxa Kit (Lonza Biosciences) and incubated with siRNA to silence LRP1 expression (siLRP1; M-094191-01-0010, Dharmacon) for 48 h. Control cells were transfected with non-targeting control (NTC) siRNA (NTC; D-001810-10-05, Dharmacon). […] Equal amounts of protein from cell lysates (20 μg), as determined by BCA Protein Assay (ThermoFisher Scientific, Waltham, MA, USA), were subjected to 10% SDS-PAGE and electro-transferred to nitrocellulose membranes. […]
# [2] = system: formalin (2.5%) induced paw licking in C57BL6 mice; test: Intraplantar formalin test; format: in vivo, mouse; details: for licking time, early phase (0-10 min): vehicle over 100 s
# Description: Intraplantar formalin and capsaicin models: Male mice (n=33) were acclimated to the behavior testing facility for at least 60 min. Mice were randomized into four groups SP163M (0.02, 0.2, and 2 μg/g) or vehicle were administered subcutaneously. After 1 h, 20 μl of 2.5% formalin was injected subcutaneously into the plantar area of left hind paw. Immediately after formalin injection, mice were placed in a Plexiglas box (22×22×14 cm). Two observers, blinded to treatments, recorded the total amount of time mice spent on licking and flinching the left hind paw every 5 min over a one-hour period. To quantify the formalin response, activity during early phase (0-10 min) and later phase (15-50 min) were examined separately.
# [3] = system: eosinophil infiltration of skin in BALB/c mice; test: Calcipotriol (MC903)/OVA induced atopic dermatitis model, eosinophils by MBP staining; format: in vivo, mouse
# Description: Dermatitis was induced on the skin of BALB/c mice with a series of calcipotriol (MC903) and OVA challenges over an 8-week period. SP163M (100 μg/mouse), A1AT (2 mg/mouse) or vehicle (DDW) was given twice weekly starting at 4 weeks. The number of eosinophils infiltrating the epithelial sections were quantified by MBP staining.
# Accordingly, SP163M improved outcomes in the atopic dermatitis animal model.
compound,measurement,setting,value
"CCCC[C@H](NC(=O)[C@H](CC(C)C)NC(=O)[C@H](Cc1ccccc1)NC(=O)[C@@H](NC(=O)[C@H](Cc1ccccc1)NC(=O)[C@@H]1CCCN1C(=O)[C@H](CCCCN)NC(=O)[C@H](CC(N)=O)NC(=O)[C@H](Cc1ccccc1)NC(=O)[C@H](CCCCN)NC(=O)[C@@H](NC(C)=O)C(C)C)C(C)C)C(=O)N[C@H](C(=O)N[C@@H](CCC(=O)O)C(=O)N[C@@H](CCC(N)=O)C(=O)N[C@@H](CC(N)=O)C(=O)N[C@H](C(=O)N[C@@H](CCCCN)C(N)=O)[C@@H](C)O)[C@@H](C)CC [SP163M, Ac-VKFNKPFVFLNIeIEQNTK-NH2]",longest neurite (maximum neurite length),"[1]; 240 nM, 54 h, vs control",significantly neurotrophic
same,sprouting (βIII-tubulin immunofluorescence),"[1]; 240 nM, after 54 h, vs vehicle",showed significant levels of sprouting that included increases in both branching and length
same,neuronal survival and neurite sprouting (phase contrast images),"[1]; within 48 h, vs untreated controls",induced greater neuronal survival and neurite sprouting compared to untreated controls
same,"activation of phospho-Akt after 10 min, with or without RAP",phospho-Akt,"activated Akt and EKR1/2 in PC12 cells after 10 min that was blocked by the addition of the 39 kDa LRP1 antagonist, RAP"
same,"licking time, early phase (0-10 min)",[2]; 0.02 μg/g s.c. 1 h before formalin,80 s
same,"AUC of licking time, late phase (15-50 min)","[2]; 0.02 μg/g s.c., vs vehicle, Tukey's post hoc test",p=ns
same,"licking time, early phase (0-10 min)",[2]; 2 μg/g s.c. 1 h before formalin,60 s
same,peak late phase start time,"[2]; 2 μg/g s.c., vehicle peak after 25 min",30 min
same,"AUC of licking time, late phase (15-50 min)","[2]; 0.2 and 2 μg/g s.c., vs vehicle",reduced licking time in the late phase compared to vehicle controls
same,"area under the curve (AUC) of licking, early phase","[2]; low 0.02 and high 2 μg/g s.c., vs vehicle",both the low and high SP163M treatment groups reached statistical significance
same,eosinophils per section vs vehicle control,"[3]; 100 μg/mouse twice weekly starting at 4 weeks, p=0.045",significantly lower levels of eosinophils per section compared to vehicle control
same,eosinophilic infiltration vs A1AT,[3]; SP163M 100 μg/mouse vs A1AT 2 mg/mouse,decreased eosinophilic infiltration compared to A1AT given at 20× higher dose

# Reference: US20250161419A1, “SERPIN PEPTIDES AND METHODS OF USING THE SAME” (SERPIN PHARMA, LLC, priority 2022, published 2025)
